Test results published in PubChem BioAssay AID1789 (The Scripps Research Institute Molecular Screening Center, 2009).
The entries are a selection whose mix differs from that of the whole data set. Calls of active or inactive are those of the source.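 How the source made its calls: active means inhibition above the screen-wide mean plus 3 SD, computed separately per campaign (cut at about 16% in these data); inactive means the rest.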

Each molecule was assayed on Heat shock protein HSP 90 (rabbit reticulocyte lysate; luciferase refolding) (assay: HSP90 inhibitors, primary screen, cell lysate, luminescence (AID 1789;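 further: 0% = DMSO wells and 100% = 60 µM geldanamycin wells; inhibitors lower the luminescence because luciferase stays unfolded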)). Conditions: 3 h, at 5.6 µM, active compounds read high.

SMILES | inhibition
O=C(NCC1(N2CCCCC2)CCCCC1)c1ccc(OC(F)F)cc1 | inactive: -1.97%
N#CC1(Nc2ccccc2)CCN(CCc2ccccc2)CC1 | inactive: -1.13%
CCN1CCC(Nc2ccc(Cl)cc2)CC1 | inactive: -2.93%
O=C(NCC1(N2CCCCC2)CCCCC1)c1cccc([N+](=O)[O-])c1 | inactive: -0.41%
O=C(NCC1(N2CCCCC2)CCCCC1)c1cccc(C(F)(F)F)c1 | inactive: -3.15%
COc1cc(C(=O)NCC2(N3CCCCC3)CCCCC2)ccc1OC(F)F | inactive: -5.42%
O=C(NCC1(N2CCOCC2)CCCCC1)c1cc(=O)[nH]c2ccccc12 | inactive: -0.68%
CN1CCN(CCOC(=O)C(O)(c2ccccc2)c2ccccc2)CC1 | inactive: 2.25%
COc1ccc(NC2CCN(C(=O)OC(C)(C)C)CC2)cc1 | inactive: -4.72%
CC(C)c1ccc(NC2CCN(C(=O)OC(C)(C)C)CC2)cc1 | inactive: -0.3%
CN(C)c1cccc(C(=O)NCC2(N3CCCCC3)CCCCC2)c1 | inactive: -0.12%
COc1ccc(CN(CCCl)CCCl)cc1Cl | inactive: -3.27%
COc1cc(OC)c(C(=O)NCC2(N(C)C)CCCCC2)cc1OC | inactive: -4.87%
CN1CCC(Nc2cccc(F)c2)CC1 | inactive: -0.98%
CCCOc1ccc(C(=O)NCC2(N(C)C)CCCCC2)cc1OC | inactive: 3.06%
COc1ccc(C(=O)NCC2(N3CCCCC3)CCCCC2)c(OC)c1OC | inactive: -0.75%
CC(C)(C)OC(=O)N1CCC(N(C(=O)c2ccccc2)c2ccc(F)cc2)CC1 | inactive: -2.57%
COc1ccc(C(=O)NCC2(N3CCCCC3)CCCCC2)cc1 | inactive: 3.79%
O=C(NCC1(N2CCCCC2)CCCCC1)c1ccc(=O)[nH]c1 | inactive: -0.33%
CSc1ccccc1C(=O)NCC1(N2CCCCC2)CCCCC1 | inactive: 3.58%
Cc1cc(C)cc(N(C(=O)c2ccccc2)C2CCN(C(=O)OC(C)(C)C)CC2)c1 | inactive: 3.63%
O=C(NCC1(N2CCOCC2)CCCCC1)c1cc2ccccc2o1 | inactive: -3.5%
N#CC1(Nc2ccccc2)CCN(Cc2ccccc2)CC1 | inactive: -1.05%
O=C(OC1CN2CCC1CC2)C1c2ccccc2Oc2ccccc21 (centres undefined) | inactive: 3.33%
CCOC(=O)N1CCC(Nc2ccc(OC)cc2)CC1 | inactive: 0.26%
CCOc1ccc(C)cc1CN(CCCl)CCCl | inactive: -0.51%
COc1ccc(NC2CCN(CCc3ccccc3)CC2)c(OC)c1 | inactive: -4.35%

SMILES | inhibition
CCOC(=O)N1CCC(Nc2ccc(F)cc2)CC1 | inactive: 6.74%
O=C(NCC1(N2CCCCC2)CCCCC1)c1ccc(F)cc1 | inactive: -4.81%
Cc1ccc(OCC(C)C)c(CN(CCCl)CCCl)c1 | inactive: 0.75%
CCOC(=O)N1CCC(Nc2cccc(C)c2)CC1 | inactive: 1.46%
COc1cc(C(=O)NCC2(N(C)C)CCCCC2)ccc1OC(F)F | inactive: 0.85%
COc1cc(OC)cc(C(=O)NCC2(N3CCCCC3)CCCCC2)c1 | inactive: 5.21%
CCN1CCC(Nc2cccc(F)c2)CC1 | inactive: 3.3%
CN(C)c1ccc(C(=O)NCC2(N3CCCCC3)CCCCC2)cc1 | inactive: -2.77%
CN1CCC(Nc2ccc(F)c(Cl)c2)CC1 | inactive: -1.96%
CCOc1ncccc1C(=O)NCC1(N2CCOCC2)CCCCC1 | inactive: 2.94%
O=C(O)C1(Nc2ccccc2)CCN(Cc2ccccc2)CC1 | inactive: -1.8%
CC(C)(C)OC(=O)N1CCC(Nc2ccccc2)CC1 | inactive: 1.37%
CCCOc1ccc(C(=O)NCC2(N(C)C)CCCCC2)cc1 | inactive: -0.18%
COc1cc(OC)cc(C(=O)NCC2(N3CCOCC3)CCCCC2)c1 | inactive: 4.78%
COc1cccc(C(=O)N(c2cc(C)cc(C)c2)C2CCN(C(=O)OC(C)(C)C)CC2)c1 | inactive: 0.49%
CCC(CO)(C(=O)OC1CN2CCC1CC2)c1ccccc1 (centres undefined) | inactive: -2.36%
CN1CCC(Nc2ccc(Cl)cc2)CC1 | inactive: -6.24%
CCCOc1ccc(C)cc1CN(CCCl)CCCl | inactive: -3.34%
COc1ccc(C(=O)NCC2(N3CCOCC3)CCCCC2)cc1OC | inactive: -0.94%
CCOC(=O)N1CCC(Nc2ccc(C)cc2)CC1 | inactive: -2.9%
N/C(=N\O)c1c(N)no[n+]1[O-] | inactive: 8.2%
O=C(OC1CN2CCC1CC2)C1c2ccccc2C=Cc2ccccc21 (centres undefined) | inactive: 3.73%
N#Cc1ccc(C(=O)NCC2(N3CCCCC3)CCCCC2)cc1 | inactive: 9.35%
CC(C)(C)OC(=O)N1CCC(N(C(=O)c2ccccc2)c2ccc(Cl)cc2)CC1 | inactive: 8.83%
CN(C)C1(CNC(=O)c2cccc(C#N)c2)CCCCC1 | inactive: 0.43%
CCCN1CCC(Nc2cc(OC)cc(OC)c2)CC1 | inactive: -2.66%
c1ccc(CN2CCC(Nc3ccccc3)CC2)cc1 | inactive: -0.48%
